Reference: patent US20020160008A1, “TREATMENT OF DIABETES” (priority 1994, published 2002)

Details: 50 μg GLIP subcutaneously with 5 units insulin; radioimmunoassay; FIG. 6 Panel E

Glucagon-like peptide 1(7-36)amide [GLIP]
time for GLIP to be cleared from the blood: about two
